{"source": "patent US20060258754A1", "about": "“Method of treating endothelial dysfunction, oxidative stress and related diseases” (priority 2004, published 2006)", "origin": "cited, not measured here", "system": "DNA", "conditions": "pro-oxidant potential; cited from earlier work"}
{"substance": "vitamin E", "values": [{"measurement": "oxidative DNA damage", "result": "cause oxidative DNA damage"}]}
